The values below come from ChEMBL document CHEMBL4725485, “Bivalent Ligand Aiming Putative Mu Opioid Receptor and Chemokine Receptor CXCR4 Dimers in Opioid Enhanced HIV-1 Entry” (ACS Med Chem Lett, 2020).

The chains behind the UniProt entries cited, without tags or fusion partners.
UniProt P61073, whole entry: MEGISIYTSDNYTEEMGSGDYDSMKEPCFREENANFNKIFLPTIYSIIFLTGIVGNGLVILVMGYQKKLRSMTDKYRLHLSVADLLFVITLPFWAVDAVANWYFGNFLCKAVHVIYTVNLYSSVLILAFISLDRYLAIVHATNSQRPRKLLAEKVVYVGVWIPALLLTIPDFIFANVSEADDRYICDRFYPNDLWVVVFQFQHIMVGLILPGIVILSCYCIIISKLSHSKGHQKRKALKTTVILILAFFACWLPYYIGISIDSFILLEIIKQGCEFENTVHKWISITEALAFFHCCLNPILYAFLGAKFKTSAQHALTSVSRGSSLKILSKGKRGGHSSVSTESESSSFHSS

The target of the test is C-X-C chemokine receptor type 4 (Homo sapiens, UniProt P61073). Briefly: Potency index, ratio of N-[6-[[2-[2-[[(3R,4R,4aS,7R,7aR,12bS)-3-(cyclopropylmethyl)-4a,9-dihydroxy-1,2,4,5,6,7,7a,13-octahydro-4,12-methanobenzofuro[3,2-e]isoquinoline-7-yl]amino]-2-oxo-ethoxy]acetyl]amino]hexyl]-2-[2-[[4-[(E)-[(cyclohexylamino)-[(6,6-dimethyl-5H-imidazo[2,1-b]thiazol-3-yl)methylsulfanyl]methylene]amino]cyclohexyl]methylamino]-2-oxo-ethoxy]acetamide IC50 to test compound IC50 for Displacement of [125I]SDF-1alpha from CXCR4 in human Chem-1 cells measured after 90 mins. The format is cell-based. Background: Displacement assays read how much labelled ligand stays bound in the presence of the test substance.

In the case of `CC1(C)CN2C(CS/C(N)=N\[C@H]3CC[C@H](CNC(=O)COCC(=O)NCCCCNC(=O)COCC(=O)N[C@@H]4CC[C@@]5(O)[C@H]6Cc7ccc(O)c8c7[C@@]5(CCN6CC5CC5)[C@H]4O8)CC3)=CSC2=N1`, the Ratio IC50 turned out to be 5.
